Test results published in ChEMBL document CHEMBL1914298, “Synthesis and inhibition study of monoamine oxidase, indoleamine 2,3-dioxygenase and tryptophan 2,3-dioxygenase by 3,8-substituted 5H-indeno[1,2-c]pyridazin-5-one derivatives” (Eur J Med Chem, 2011).

Protein sequences, listed by entry. Tags and fused reporters are not part of them.
UniProt P27338, whole entry: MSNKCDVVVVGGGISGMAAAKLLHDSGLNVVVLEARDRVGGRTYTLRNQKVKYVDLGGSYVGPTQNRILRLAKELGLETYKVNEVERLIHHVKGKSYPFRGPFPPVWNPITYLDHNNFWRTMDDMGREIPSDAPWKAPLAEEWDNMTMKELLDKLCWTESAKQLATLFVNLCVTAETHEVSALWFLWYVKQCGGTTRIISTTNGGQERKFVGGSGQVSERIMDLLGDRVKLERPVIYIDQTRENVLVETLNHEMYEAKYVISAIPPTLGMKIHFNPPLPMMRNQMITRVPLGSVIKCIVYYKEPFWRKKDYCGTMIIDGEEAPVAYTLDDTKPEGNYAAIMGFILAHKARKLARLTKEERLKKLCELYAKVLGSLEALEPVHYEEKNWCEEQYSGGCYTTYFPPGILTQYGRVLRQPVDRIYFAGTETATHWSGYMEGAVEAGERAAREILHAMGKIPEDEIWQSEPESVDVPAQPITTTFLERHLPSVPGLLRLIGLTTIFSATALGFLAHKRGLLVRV

Molecular target: Amine oxidase [flavin-containing] B (Homo sapiens, UniProt P27338)
Experiment: Inhibition of human recombinant MAOB expressed in baculovirus-infected BTI insect cells after 1 hr by Cheng-Prusoff equation analysis
Summary of the method: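 Recombinant human MAO-B (baculovirus/BTI insect cells), luminescent activity read-out; IC50 measured experimentally and converted to Ki via Cheng-Prusoff equation; reported as mean with 95% confidence intervals, n = 3.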

Ki: 280 nM
SMILES: Cc1cc2c(nn1)-c1cc(OCCCC(F)(F)F)ccc1C2=O
